Here are results for three compounds from US20190153024A1, “NOVEL SALTS AND POLYMORPHS OF SCY-078” (priority 2015, published 2019).

What all share (format): physicochemical
Data set [1] can be described thus: Kinetic solubility in water (citrate Type A, freebase/citric acid mixture, amorphous citrate). The conditions noted are these: for XRPD Form: remaining solid; for Form: residual solid by XRPD.
Data set [2] can be described thus: Equilibrium solubility in water. Conditions: initial pH 8.0, 24 hrs.
Data set [3] can be described thus: Solubility of citrate Type N and Type Q in EtOH at 5° C. and 20° C. The conditions noted are these: EtOH solubility experiments.

Turning to `CC(C)[C@@H](C)[C@@]1(C)CC[C@]2(C)[C@H]3CC[C@@H]4[C@@]5(COC[C@]4(C)[C@@H](OC[C@](C)(N)C(C)(C)C)[C@H](n4ncnc4-c4ccncc4)C5)C3=CC[C@@]2(C)[C@@H]1C(=O)O.O=C(O)CC(O)(CC(=O)O)C(=O)O` [SCY-078 citrate Type A], the pH in data set [1] (kinetic solubility in water (initial pH 8.0), 1 hr) was 3.3; in data set [1] (kinetic solubility in water (initial pH 8.0), 4 hrs), 3.3; in data set [1] (kinetic solubility in water (initial pH 8.0), 24 hrs) it was 3.4; in data set [1] (water, 20 mg/mL, 1 hr), 3.5; in data set [1] (water, 20 mg/mL, 4 hrs) it was 3.4; in data set [1] (water, 20 mg/mL, 24 hrs) it was 3.3. Further, the pH in data set [1] (water, 50 mg/mL, 1 hr) stood at 3.4; in data set [1] (water, 50 mg/mL, 4 hrs), 3.3; in data set [1] (water, 50 mg/mL, 24 hrs), 3.2. Further, the “XRPD Form” value is recorded as “Citrate Type A” in data set [1] (water, 20 mg/mL, 1 hr); “Citrate Type A” in data set [1] (water, 20 mg/mL, 4 hrs); “Citrate Type A” in data set [1] (water, 20 mg/mL, 24 hrs); “Citrate Type A” in data set [1] (water, 50 mg/mL, 1 hr); “Citrate Type A” in data set [1] (water, 50 mg/mL, 4 hrs); “Citrate Type A” in data set [1] (water, 50 mg/mL, 24 hrs). Besides, the “dissolution behaviour in water” value in data set [1] (water, 1 hour to 24 hours) is “slow rate of dissolution and increasing solubility”. In addition, in data set [1] (water, after 24 hours), the “solid form of residual solid in water” value was “partially converted to amorphous”. Moreover, the figures for the “Final pH” value in data set [2] (ratio of solid/solvent 0.3 mg/mL), in data set [2] (ratio of solid/solvent 2.0 mg/mL) and in data set [2] (ratio of solid/solvent 50.6 mg/mL) were 5.1, 4.2 and 3.4, respectively.
Take `CC(C)[C@@H](C)[C@@]1(C)CC[C@]2(C)[C@H]3CC[C@@H]4[C@@]5(COC[C@]4(C)[C@@H](OC[C@](C)(N)C(C)(C)C)[C@H](n4ncnc4-c4ccncc4)C5)C3=CC[C@@]2(C)[C@@H]1C(=O)O.O=C(O)CC(O)(CC(=O)O)C(=O)O` [SCY-078 citrate amorphous]: the Form result in data set [1] (starting solid from fast evaporation in THF (pH 8.0), 1 hr) is “Amorphous”; in data set [1] (starting solid from lyophilization in pH 6.0 buffer, 1 hr), “Amorphous”; in data set [1] (starting solid from lyophilization in pH 6.0 buffer, 4 hrs), “Amorphous”; in data set [1] (starting solid from lyophilization in pH 6.0 buffer, 24 hrs), “Amorphous”; in data set [1] (starting solid from lyophilization in water (pH 8.0), 1 hr), “Amorphous”. Besides, the pH in data set [1] (water, starting solid from fast evaporation in THF (pH 8.0), 1 hr) stood at 3.2; in data set [1] (water, starting solid from fast evaporation in THF (pH 8.0), 4 hrs), 3.2; in data set [1] (water, starting solid from fast evaporation in THF (pH 8.0), 24 hrs) it was 3.2; in data set [1] (water, starting solid from lyophilization in water (pH 8.0), 1 hr) it was 3.1; in data set [1] (water, starting solid from lyophilization in water (pH 8.0), 4 hrs), 3.3; in data set [1] (water, starting solid from lyophilization in water (pH 8.0), 24 hrs), 3.2.
For `CC(C)[C@@H](C)[C@@]1(C)CC[C@]2(C)[C@H]3CC[C@@H]4[C@@]5(COC[C@]4(C)[C@@H](OC[C@](C)(N)C(C)(C)C)[C@H](n4ncnc4-c4ccncc4)C5)C3=CC[C@@]2(C)[C@@H]1C(=O)O.O=C(O)CC(O)(CC(=O)O)C(=O)O` [SCY-078 citrate Type Q], the “form change of remaining wet cake (XRPD)” value in data set [3] was “no form change”.
